What is called IC50 is the concentration that inhibits the measured activity by half.

Chains of the proteins cited; added tags and fusions are not shown. Lines headed by an entry give the natural chain unless they say otherwise; changes in a name come on top.
UniProt O00329: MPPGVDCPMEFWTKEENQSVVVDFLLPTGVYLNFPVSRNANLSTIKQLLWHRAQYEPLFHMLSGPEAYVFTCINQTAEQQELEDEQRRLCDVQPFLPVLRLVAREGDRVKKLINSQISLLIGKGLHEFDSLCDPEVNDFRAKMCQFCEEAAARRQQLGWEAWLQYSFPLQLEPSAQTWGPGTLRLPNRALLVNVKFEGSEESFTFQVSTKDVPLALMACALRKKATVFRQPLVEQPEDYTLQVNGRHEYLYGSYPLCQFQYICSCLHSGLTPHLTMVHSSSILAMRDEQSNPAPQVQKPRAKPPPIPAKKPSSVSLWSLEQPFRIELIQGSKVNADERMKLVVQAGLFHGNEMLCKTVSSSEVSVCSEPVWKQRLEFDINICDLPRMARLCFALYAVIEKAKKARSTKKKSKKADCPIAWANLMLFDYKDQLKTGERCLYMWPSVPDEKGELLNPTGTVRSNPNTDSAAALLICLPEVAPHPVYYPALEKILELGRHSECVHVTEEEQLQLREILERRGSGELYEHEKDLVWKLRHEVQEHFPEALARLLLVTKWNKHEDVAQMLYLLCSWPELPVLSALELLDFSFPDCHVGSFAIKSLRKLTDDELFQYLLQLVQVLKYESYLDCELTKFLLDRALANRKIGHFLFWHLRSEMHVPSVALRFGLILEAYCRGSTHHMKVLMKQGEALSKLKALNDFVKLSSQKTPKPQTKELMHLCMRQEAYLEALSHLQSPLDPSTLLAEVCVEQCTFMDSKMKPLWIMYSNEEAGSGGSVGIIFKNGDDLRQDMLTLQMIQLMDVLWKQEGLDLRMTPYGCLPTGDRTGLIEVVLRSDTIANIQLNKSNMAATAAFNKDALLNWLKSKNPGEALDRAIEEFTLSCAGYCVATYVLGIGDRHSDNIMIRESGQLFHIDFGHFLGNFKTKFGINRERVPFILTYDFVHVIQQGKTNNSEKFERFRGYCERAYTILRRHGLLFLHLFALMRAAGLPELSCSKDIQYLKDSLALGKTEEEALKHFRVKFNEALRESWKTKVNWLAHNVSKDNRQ

Here are results for one compound from patent US9499561B2, “Fused pyrimidine compound, and preparation method, intermediate, composition, and uses thereof” (Shanghai Yingli Science and Technology Co., Ltd., priority 2012, dated 2016).

The test deals with PI3Kδ (Homo sapiens (Human), UniProt O00329). In words: PI3Kδ enzymatic inhibitory activity IC50 assay (Caliper Reader). Format: biochemical. The protocol: Biological Effect Example 1 PI3Kα and PI3Kδ Enzymatic Inhibitory Activity IC50 Assay • 1. Buffer preparation: 50 mM HEPES, pH 7.5, 3 mM MgCl2, 1 mM EGTA, 100 mM NaCl, 0.03% CHAPS. • 2. Compound was formulated in 100% DMSO in a concentration gradient, deposited to a 384-well plate to make final DMSO concentration of 1%. • 3. PI3Kα and PI3Kδ enzymes were diluted to be the optimum concentration with the following buffer: 50 mM HEPES, pH 7.5, 3 mM MgCl2, 1 mM EGTA, 100 mM NaCl, 0.03% CHAPS, 2 mM DTT. Transferred to a 384-well plate and incubated with the compound for a certain time. • 4. Substrate was diluted to an optimum concentration with following buffer: 50 mM HEPES, pH 7.5, 3 mM MgCl2, 1 mM EGTA, 100 mM NaCl, 0.03% CHAPS, 2 mM DTT, 50 μM PIP2, Km ATP. The reaction was performed in a 384-well plate for 1 h at room temperature for PI3Kα and 2 hrs at room temperature for PI3Kδ. • 5. Read the conversion rate using Caliper Reader, and calculate the inhibition rate as the average of two tests.

`CN(Cc1csc2c(-c3cnc(N)nc3)nc(N3CCOCC3)nc12)C(=O)CO` [Compound 32] yielded an IC50 of 137 nM.
